Experimental data as given in patent US7045636B2, “MCH antagonists for the treatment of obesity” (Schering Corporation, priority 2001, dated 2006).

Amino acid sequences for entries named in this document (tags omitted). A change or cut given only in a name is not applied to a line headed by its entry.
UniProt Q99705: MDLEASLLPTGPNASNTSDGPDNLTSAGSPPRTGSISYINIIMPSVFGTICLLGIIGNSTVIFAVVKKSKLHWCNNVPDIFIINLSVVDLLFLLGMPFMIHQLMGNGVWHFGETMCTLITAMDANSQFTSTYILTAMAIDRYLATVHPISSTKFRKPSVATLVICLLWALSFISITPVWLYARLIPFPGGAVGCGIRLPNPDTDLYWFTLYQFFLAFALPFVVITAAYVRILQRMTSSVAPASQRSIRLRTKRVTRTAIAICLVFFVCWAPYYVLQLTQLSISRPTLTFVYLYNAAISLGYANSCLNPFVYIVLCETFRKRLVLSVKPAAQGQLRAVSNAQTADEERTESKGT

Target: T1, MCH receptor (Homo sapiens, UniProt Q99705)
T1 construct: expressed in transfected cells; host or cells: CHO cells
Assay: MCH Receptor Binding Assay
Details: Table 1; membranes from CHO cells expressing the MCH receptor, [125I]-MCH, SPA
Protocol: MCH Receptor Binding Assay:
Membranes from CHO cells expressing the MCH receptor were prepared by lysing cells with 5 mM HEPES for 15 min at 4C. Cell lysates were centrifuged ([…], 15 min) and the pellet was re-suspended in 5 mM HEPES. For each 96-well plate (Microlite, Dynex Technologies), 1 mg of cell membranes were incubated with 10 mg of wheat germ agglutinin SPA beads (Amersham) for 5 min at 4 C in a volume of 10 ml of binding buffer (25 mM HEPES, 10 mM MGCl2, 10 mM NaCl, 5 mM MnCl2, 0.1% BSA). The membrane/bead mixture was centrifuged (1500×g, 3.5 min), the supernatant was aspirated, and the pellet was re-suspended in 10 ml binding buffer. The centrifugation, aspiration and re-suspension were then repeated. The membrane/bead mixture (100 μl) was then added to 96-well plates containing 50 μl of 500 pM [^125I]-MCH (NEN) and […] of the appropriate concentration of compound (4× the desired final concentration). Nonspecific binding was determined by including 1 μM MCH in the binding reaction. The binding reaction was incubated at room temperature for 2 h. Plates were then analyzed in a TOPCOUNT microplate scintillation counter (Packard). Data was analyzed and Ki values were determined using GraphPad Prim.

Ki: 15 nM
SMILES: N#Cc1cccc(-c2ccc(CCN(CC(=O)Nc3cc(Cl)cc(Cl)c3)C(=O)CN3CC[C@@H](O)C3)cc2)c1 [Example 14]
